{"sequences": {"note": "Amino acid sequences for entries named in this document (tags omitted).", "UniProt Q06187, whole entry": "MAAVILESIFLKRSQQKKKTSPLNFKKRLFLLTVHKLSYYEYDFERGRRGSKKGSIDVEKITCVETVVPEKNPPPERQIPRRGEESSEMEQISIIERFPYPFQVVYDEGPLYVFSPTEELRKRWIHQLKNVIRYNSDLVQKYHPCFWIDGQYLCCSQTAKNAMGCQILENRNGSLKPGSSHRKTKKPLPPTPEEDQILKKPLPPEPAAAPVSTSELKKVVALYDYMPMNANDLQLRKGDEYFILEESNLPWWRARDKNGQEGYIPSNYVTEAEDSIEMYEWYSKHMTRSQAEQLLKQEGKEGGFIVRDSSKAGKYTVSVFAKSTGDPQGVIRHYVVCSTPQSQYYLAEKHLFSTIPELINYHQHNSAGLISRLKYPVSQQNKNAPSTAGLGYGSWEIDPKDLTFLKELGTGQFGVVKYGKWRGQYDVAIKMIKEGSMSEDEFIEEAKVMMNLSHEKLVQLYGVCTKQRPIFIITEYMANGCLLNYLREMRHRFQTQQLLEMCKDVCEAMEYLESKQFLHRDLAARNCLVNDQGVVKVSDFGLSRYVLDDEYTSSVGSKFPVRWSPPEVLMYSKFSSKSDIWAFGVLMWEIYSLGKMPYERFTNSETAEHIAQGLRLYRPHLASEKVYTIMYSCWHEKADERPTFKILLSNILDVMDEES", "UniProt Q9NPD5, whole entry": "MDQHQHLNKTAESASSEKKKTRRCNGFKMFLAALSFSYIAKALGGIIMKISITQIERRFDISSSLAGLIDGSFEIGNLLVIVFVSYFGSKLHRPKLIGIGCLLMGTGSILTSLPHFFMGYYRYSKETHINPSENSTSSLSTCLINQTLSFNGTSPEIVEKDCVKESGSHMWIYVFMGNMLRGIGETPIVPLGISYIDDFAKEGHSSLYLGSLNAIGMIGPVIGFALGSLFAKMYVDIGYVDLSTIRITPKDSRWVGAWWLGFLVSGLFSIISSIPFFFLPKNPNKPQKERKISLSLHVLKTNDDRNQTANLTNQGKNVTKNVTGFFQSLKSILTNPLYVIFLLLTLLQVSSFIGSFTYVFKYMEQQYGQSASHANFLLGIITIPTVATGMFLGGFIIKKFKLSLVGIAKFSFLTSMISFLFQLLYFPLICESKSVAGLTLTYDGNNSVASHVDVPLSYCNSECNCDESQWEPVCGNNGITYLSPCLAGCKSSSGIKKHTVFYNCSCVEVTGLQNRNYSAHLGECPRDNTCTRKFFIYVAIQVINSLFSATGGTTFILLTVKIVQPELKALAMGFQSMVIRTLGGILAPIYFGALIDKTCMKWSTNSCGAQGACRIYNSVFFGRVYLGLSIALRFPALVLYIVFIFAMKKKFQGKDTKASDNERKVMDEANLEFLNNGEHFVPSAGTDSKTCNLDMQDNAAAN", "UniProt Q9Y6L6, whole entry": "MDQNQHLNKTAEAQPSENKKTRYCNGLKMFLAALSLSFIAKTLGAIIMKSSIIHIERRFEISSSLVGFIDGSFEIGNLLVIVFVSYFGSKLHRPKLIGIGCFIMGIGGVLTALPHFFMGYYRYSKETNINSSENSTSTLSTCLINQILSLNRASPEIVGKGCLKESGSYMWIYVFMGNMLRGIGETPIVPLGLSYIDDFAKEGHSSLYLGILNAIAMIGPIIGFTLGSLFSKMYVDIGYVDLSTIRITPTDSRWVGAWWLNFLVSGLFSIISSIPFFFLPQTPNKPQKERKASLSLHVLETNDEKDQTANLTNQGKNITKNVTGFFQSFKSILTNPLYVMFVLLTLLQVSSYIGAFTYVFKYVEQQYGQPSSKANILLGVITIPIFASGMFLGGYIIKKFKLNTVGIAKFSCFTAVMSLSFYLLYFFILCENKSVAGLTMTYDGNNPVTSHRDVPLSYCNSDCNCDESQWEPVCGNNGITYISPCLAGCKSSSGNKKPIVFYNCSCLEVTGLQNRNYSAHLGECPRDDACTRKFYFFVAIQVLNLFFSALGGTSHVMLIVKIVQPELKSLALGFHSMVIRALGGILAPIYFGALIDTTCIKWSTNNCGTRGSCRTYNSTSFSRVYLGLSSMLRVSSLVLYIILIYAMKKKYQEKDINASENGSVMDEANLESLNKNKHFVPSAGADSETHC", "UniProt P51813, whole entry": "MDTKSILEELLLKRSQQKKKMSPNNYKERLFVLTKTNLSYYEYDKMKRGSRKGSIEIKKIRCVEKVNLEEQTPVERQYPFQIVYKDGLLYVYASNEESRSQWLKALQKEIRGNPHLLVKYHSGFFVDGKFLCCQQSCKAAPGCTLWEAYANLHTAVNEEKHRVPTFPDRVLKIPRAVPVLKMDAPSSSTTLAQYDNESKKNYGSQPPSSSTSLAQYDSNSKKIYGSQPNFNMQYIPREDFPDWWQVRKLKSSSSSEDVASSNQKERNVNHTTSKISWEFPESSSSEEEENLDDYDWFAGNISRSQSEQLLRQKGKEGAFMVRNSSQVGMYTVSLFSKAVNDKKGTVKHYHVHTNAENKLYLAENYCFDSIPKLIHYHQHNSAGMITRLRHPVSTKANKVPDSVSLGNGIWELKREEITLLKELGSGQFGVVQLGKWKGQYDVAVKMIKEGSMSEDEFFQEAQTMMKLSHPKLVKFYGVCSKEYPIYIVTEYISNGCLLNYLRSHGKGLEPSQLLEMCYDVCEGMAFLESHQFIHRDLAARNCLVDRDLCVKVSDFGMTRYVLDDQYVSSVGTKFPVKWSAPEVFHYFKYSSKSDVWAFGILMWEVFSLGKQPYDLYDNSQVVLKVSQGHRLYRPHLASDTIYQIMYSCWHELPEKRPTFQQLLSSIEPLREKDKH"}, "source": "paper PMC12426595", "about": "(Cancer Research Communications, 2025)", "key": {"LYN kinase": {"tested_on": "LYN kinase", "assay": "KdELECT assay, LYN kinase", "details": "relevant range of concentrations"}, "[1]": {"target": "BTK-NanoLuc Fusion Vector in HEK293 cells (Homo sapiens, UniProt Q06187)", "assay": "NanoBRET intracellular binding assay, BTK"}, "OATP1B-type transporters": {"tested_on": "OATP1B-type transporters", "assay": "Basic model DDI assessment (Cmax/IC50 ratios and R values)", "details": "OATP1B-type transporter inhibition"}, "OATP1B3 [2]": {"target": "T1, OATP1B3 (Homo sapiens, UniProt Q9NPD5)", "assay": "Transport inhibition assay, OATP1B3", "details": "read-out: IC50 OATP1B3 transport inhibition; 8-FcA as test substrate; HEK293 cells"}, "recombinant human BTK": {"target": "recombinant human BTK (Homo sapiens, UniProt Q06187)", "assay": "HotSpot Kinase Assay, BTK"}, "[3]": {"assay": "In vivo pharmacokinetics of TL-895 in mice", "details": "for increase in systemic exposure (AUC), CYP3A(−/−) vs wild type: FVB"}, "OATP1B3 [4]": {"target": "T1, OATP1B3", "assay": "Competitive counterflow transport, OATP1B3", "details": "HEK293 cells overexpressing OATP1B3"}, "BMX": {"tested_on": "BMX", "assay": "KINOMEscan binding, BMX", "details": "TL-895 500 nmol/L"}, "BTK": {"tested_on": "BTK", "assay": "KINOMEscan binding, BTK", "details": "TL-895 500 nmol/L"}, "OATP1B1 [5]": {"target": "T2, OATP1B1 (Homo sapiens, UniProt Q9Y6L6)", "assay": "Competitive counterflow transport, OATP1B1", "details": "HEK293 cells overexpressing OATP1B1"}, "recombinant human BMX": {"target": "recombinant human BMX (Homo sapiens, UniProt P51813)", "assay": "HotSpot Kinase Assay, BMX"}, "OATP1B1 [6]": {"target": "T2, OATP1B1", "assay": "Transport inhibition assay, OATP1B1", "details": "read-out: IC50 OATP1B1 transport inhibition; 8-FcA as test substrate; HEK293 cells"}, "[7]": {"target": "BMX-NanoLuc Fusion Vector in HEK293 cells (Homo sapiens, UniProt P51813)", "assay": "NanoBRET intracellular binding assay, BMX"}, "[8]": {"details": "C57BL/6 WT, female, 3 mg/kg oral"}, "[9]": {"details": "C57BL/6 WT, female, 10 mg/kg oral"}, "[10]": {"details": "C57BL/6 WT, male, 10 mg/kg oral"}, "[11]": {"details": "FVB CYP3A(−/−), female, 3 mg/kg oral"}, "[12]": {"details": "FVB CYP3A(−/−), male, 3 mg/kg oral"}}, "note": "Marks after values point to notes of the source that are not given here.", "data": [{"smiles": "C=CC(=O)N1CCC(F)(CNc2ncnc(N)c2-c2ccc(Oc3ccccc3)cc2)CC1", "values": [{"measurement": "inhibition of LYN kinase", "setting": "LYN kinase", "result": "insensitive to inhibition"}, {"measurement": "EC50", "setting": "[1]; read-out: EC50 BTK (NanoBRET intracellular binding), HEK293 cells, 60 minutes", "result": 6.8, "unit": "nM"}, {"measurement": "IC50", "setting": "[1]; read-out: IC50 BTK, BRET assay, in abstract", "result": 6.8, "unit": "nM"}, {"measurement": "R values", "setting": "OATP1B-type transporters", "result": "≤ 1.1"}, {"measurement": "IC50", "setting": "OATP1B3 [2]", "result": 4090, "unit": "nM"}, {"measurement": "EC50", "setting": "recombinant human BTK; read-out: EC50 against BTK (HotSpot Kinase Assay), 10 μmol/L ATP", "result": 3.02, "unit": "nM"}, {"measurement": "IC50", "setting": "recombinant human BTK; read-out: IC50 BTK, kinase assay, in abstract", "result": 3.02, "unit": "nM"}, {"measurement": "AUC", "setting": "[3]; [8]", "result": "110 ± 49.7", "unit": "ng·h/mL"}, {"measurement": "Cmax", "setting": "[3]; [8]", "result": "237 ± 96.3", "unit": "ng/mL"}, {"measurement": "AUC", "setting": "[3]; [9]", "result": "869 ± 75.0", "unit": "ng·h/mL"}, {"measurement": "Cmax", "setting": "[3]; [9]", "result": "509 ± 62.2", "unit": "ng/mL"}, {"measurement": "AUC", "setting": "[3]; C57BL/6 WT, male, 3 mg/kg oral", "result": "95.7 ± 9.55", "unit": "ng·h/mL"}, {"measurement": "Cmax", "setting": "[3]; C57BL/6 WT, male, 3 mg/kg oral", "result": "122 ± 31.6", "unit": "ng/mL"}, {"measurement": "AUC", "setting": "[3]; [10]", "result": "693 ± 94.2", "unit": "ng·h/mL"}, {"measurement": "Cmax", "setting": "[3]; [10]", "result": "276 ± 36.5", "unit": "ng/mL"}, {"measurement": "AUC", "setting": "[3]; [11]", "result": "1,130 ± 78.8****^, #### ng × h/mL"}, {"measurement": "Cmax", "setting": "[3]; [11]", "result": "345 ± 49.8***^, #### ng/mL"}, {"measurement": "AUC", "setting": "[3]; [12]", "result": "571 ± 72.1", "unit": "ng·h/mL"}, {"measurement": "Cmax", "setting": "[3]; [12]", "result": "181 ± 13.6", "unit": "ng/mL"}, {"measurement": "AUC", "setting": "[3]; FVB WT, female, 3 mg/kg oral", "result": "246 ± 16.1", "unit": "ng·h/mL"}, {"measurement": "Cmax", "setting": "[3]; FVB WT, female, 3 mg/kg oral", "result": "89.3 ± 10.0", "unit": "ng/mL"}, {"measurement": "AUC", "setting": "[3]; FVB WT, male, 3 mg/kg oral", "result": "318 ± 40.0", "unit": "ng·h/mL"}, {"measurement": "Cmax", "setting": "[3]; FVB WT, male, 3 mg/kg oral", "result": "96.7 ± 9.15", "unit": "ng/mL"}, {"measurement": "AUC", "setting": "[3]; NSG WT, female, 3 mg/kg oral", "result": "414 ± 17.5", "unit": "ng·h/mL"}, {"measurement": "Cmax", "setting": "[3]; NSG WT, female, 3 mg/kg oral", "result": "176 ± 19.3", "unit": "ng/mL"}, {"measurement": "AUC", "setting": "[3]; NSG WT, female, 10 mg/kg oral", "result": "1,220 ± 86.9 ng × h/mL"}, {"measurement": "Cmax", "setting": "[3]; NSG WT, female, 10 mg/kg oral", "result": "279 ± 37.1", "unit": "ng/mL"}, {"measurement": "AUC", "setting": "[3]; NSG WT, male, 3 mg/kg oral", "result": "395 ± 131", "unit": "ng·h/mL"}, {"measurement": "Cmax", "setting": "[3]; NSG WT, male, 3 mg/kg oral", "result": "190 ± 32.3", "unit": "ng/mL"}, {"measurement": "AUC", "setting": "[3]; NSG WT, male, 10 mg/kg oral", "result": "681 ± 55.8", "unit": "ng·h/mL"}, {"measurement": "Cmax", "setting": "[3]; NSG WT, male, 10 mg/kg oral", "result": "254 ± 28.6", "unit": "ng/mL"}, {"measurement": "increase in systemic exposure (AUC), CYP3A(−/−) vs wild type", "setting": "[3]; female mice, 3 mg/kg oral", "result": 4.6, "unit": "fold"}, {"measurement": "increase in systemic exposure (AUC), CYP3A(−/−) vs wild type", "setting": "[3]; male mice, 3 mg/kg oral, 3 mg/kg", "result": 1.8, "unit": "fold"}, {"measurement": "EβG efflux in competitive counterflow (substrate status), OATP1B3", "setting": "OATP1B3 [4]", "result": "but not by OATP1B3"}, {"measurement": "%Ctrl, BMX", "setting": "BMX", "result": 3.9, "unit": "%"}, {"measurement": "%Ctrl, BTK", "setting": "BTK", "result": 0.3, "unit": "%"}, {"measurement": "EβG efflux in competitive counterflow (substrate status), OATP1B1", "setting": "OATP1B1 [5]", "result": "induces EβG efflux"}, {"measurement": "EC50", "setting": "recombinant human BMX; read-out: EC50 against BMX (HotSpot Kinase Assay), 10 μmol/L ATP", "result": 0.53, "unit": "nM"}, {"measurement": "IC50", "setting": "recombinant human BMX; read-out: IC50 BMX, kinase assay, in abstract", "result": 0.53, "unit": "nM"}, {"measurement": "IC50", "setting": "OATP1B1 [6]", "result": 3670, "unit": "nM"}, {"measurement": "EC50", "setting": "[7]; read-out: EC50 BMX (NanoBRET intracellular binding), HEK293 cells, 60 minutes", "result": 1.6, "unit": "nM"}, {"measurement": "IC50", "setting": "[7]; read-out: IC50 BMX, BRET assay, in abstract", "result": 1.6, "unit": "nM"}]}]}
